System: TNBC cells
Experiment: Growth inhibition of TNBC cells by EZH2 inhibitors
Type: cell-based

## CCN(c1cc(-c2ccc(CN3CCOCC3)cc2)cc(C(=O)NCc2c(C)cc(C)[nH]c2=O)c1C)C1CCOCC1 [EPZ6438]
  growth inhibition and apoptosis induction in TNBC cells: failed to inhibit growth

Source: paper PMC6982609 (Nature chemical biology, 2019)
